Assay results: patent publication US20130136721A1, “Compositions and Methods of Generating a Differentiated Mesodermal Cell” (THE JOHNS HOPKINS UNIVERSITY, priority 2010, published 2013)

System: H9 hESC
Test: Beating hEB assay (contracting hEB after forced aggregation cardiac differentiation)
Format: cell-based, human
Details: supplement in d4 onwards medium
Description: The cardiac differentiation protocol was divided into four distinct phases for optimization (FIG. 3A): phase 1: uniform undifferentiated growth; phase 2: hEB formation/mesoderm induction; phase 3: hEB cardiac specification; phase 4: contracting cardiomyocyte development. A simple beating hEB assay was used to sequentially assess improvements in cardiac differentiation in each of these four phases by counting the number of hEB contracting after nine days of differentiation, a time point that was identified as the day of maximum percentage contraction in the enhanced ‘prototype’ version of the protocol (FIG. 1B). […] For each variable tested, the bell-curve distribution of dose-response was determined. […]
For forced aggregation hEB differentiations, confluent hESC or hiPSC which had been grown on a commercially available extracellular matrix, Geltrex (Invitrogen) as monolayers for 3 to 13 passages were passaged with TrypLE Select and seeded at 2.5×10^6 per T25 flask. […] Media was changed on d7 and every 3 days afterwards. hEB were visually assessed for contraction on d9 using a Nikon Eclipse Ti inverted tissue culture microscope with a TOKAI-HIT heated stage (Nikon). […]
One single replicate consists of one 96-well plate. […] Total number of hEB assessed in this work exceeds 80,000. […]

In the case of HSA: human serum albumin, the “effect on cardiac differentiation, phase 4 medium” value is reported as “not required for the d4 onwards phase”.
